Reference: article PMC5161585 (Nature, 2016)

Test system: Oprm1−/− mice
Test: Hotplate assay in μOR knockout mice
Type: in vivo, mouse
Details: morphine 10 mg/kg, PZM21 20 mg/kg, 30 min

SMILES: CN1CC[C@]23c4c5ccc(O)c4O[C@H]2[C@@H](O)C=C[C@H]3[C@H]1C5 [morphine, reference compound]
- analgesic response in hotplate assay in μOR knockout mice: ablates all analgesic responses
